According to patent publication EP2692332A2, “Composition for the treatment of callus, corns, moles, telangiectasias, and psoriasis” (Unigroup ApS, priority 2012, dated 2014):

Format: physicochemical
Details: solvent ethyl lactate

Q: Which “concentration at which precipitated in ethyl lactate” value does the source give for `O=C(O)c1ccccc1O` [salicylic acid] here?
A: 40 % w/w
